Measurements taken from PMC3386472 (Journal of Medicinal Chemistry, 2012).

Protein sequences, listed by entry. Tags and fused reporters are not part of them.
UniProt P19020, whole entry: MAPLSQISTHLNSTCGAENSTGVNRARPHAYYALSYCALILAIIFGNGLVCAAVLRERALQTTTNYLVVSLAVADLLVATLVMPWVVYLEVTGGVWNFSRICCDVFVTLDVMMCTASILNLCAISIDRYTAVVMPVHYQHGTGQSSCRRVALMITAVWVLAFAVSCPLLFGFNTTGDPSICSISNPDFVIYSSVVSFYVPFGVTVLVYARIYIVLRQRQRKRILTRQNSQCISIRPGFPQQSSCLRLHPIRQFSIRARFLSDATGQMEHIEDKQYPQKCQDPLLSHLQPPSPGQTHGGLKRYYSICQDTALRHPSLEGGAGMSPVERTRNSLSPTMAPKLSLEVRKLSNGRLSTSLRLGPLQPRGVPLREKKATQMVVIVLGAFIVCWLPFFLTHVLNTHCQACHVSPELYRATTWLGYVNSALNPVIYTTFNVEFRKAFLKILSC

Biological target: rat D3 receptor (Rattus norvegicus, UniProt P19020)
Conditions: binding selectivity, ratio Ki rD2L / Ki rD3

`CCCN(CCC)C1CCc2c(O)cccc2C1` (single isomer, unassigned; (-)) [(−)-5-OH-DPAT, 5-hydroxy-2-(dipropylamino)tetralin] gave a D2L/D3 of 43.2.
